# Reference: PubChem BioAssay (NCI)
# Some of these compounds have results that are not shown, active ones among them.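 Five compound concentrations were applied to cells in 96-well plates for 48 hours; endpoints were derived by simple linear interpolation of the resulting dose-response curve. Abbreviation: GI50, concentration required for 50% inhibition of growth. Definition used: TGI = concentration required for complete inhibition of growth.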
# Legend:
# Experiment in all cases: NCI-60 cell line screen, 48 h
# [1] = test system: K-562 leukemia
# [2] = test system: SW-620 colon
# [3] = test system: HCC-2998 colon
# [4] = test system: CAKI-1 renal
# [5] = test system: SK-MEL-2 melanoma
# [6] = test system: RPMI-8226 leukemia
# [7] = test system: EKVX NSCLC
# [8] = test system: NCI/ADR-RES ovarian
# [9] = test system: NCI-H226 lung
# [10] = test system: SF-295 CNS
# [11] = test system: SNB-19 CNS
# [12] = test system: PC-3 prostate
# [13] = test system: COLO 205 colon
# [14] = test system: CCRF-CEM leukemia
# [15] = test system: LOX IMVI melanoma
# [16] = test system: UACC-257 melanoma
# [17] = test system: KM12 colon
# [18] = test system: UACC-62 melanoma
# [19] = test system: SN12C renal
# [20] = test system: BT-549 breast
# [21] = test system: TK-10 renal
# [22] = test system: HCT-116 colon
# [23] = test system: A498 renal
# [24] = test system: HOP-92 NSCLC
# [25] = test system: UO-31 renal
# [26] = test system: SK-MEL-28 melanoma
# [27] = test system: NCI-H23 lung
# [28] = test system: SNB-75 CNS
# [29] = test system: DU-145 prostate
# [30] = test system: SF-268 CNS
# [31] = test system: IGROV1 ovarian
# [32] = test system: HS 578T breast
# [33] = test system: MCF7 breast
# [34] = test system: T-47D breast
# [35] = test system: NCI-H460 lung
# [36] = test system: SK-MEL-5 melanoma
# [37] = test system: M14 melanoma
# [38] = test system: MDA-N
# [39] = test system: SF-539 CNS
# [40] = test system: OVCAR-3 ovarian
# [41] = test system: OVCAR-8 ovarian
# [42] = test system: U251 CNS
# [43] = test system: MOLT-4 leukemia
# [44] = test system: HT29 colon
# [45] = test system: HL-60(TB) leukemia
# [46] = test system: MDA-MB-435
# [47] = test system: HOP-62 NSCLC
# [48] = test system: SR leukemia
# [49] = test system: ACHN renal
# [50] = test system: A549 NSCLC
# [51] = test system: OVCAR-4 ovarian
# [52] = test system: OVCAR-5 ovarian
# [53] = test system: SK-OV-3 ovarian
# [54] = test system: RXF 393 renal
# [55] = test system: 786-0 renal
# [56] = test system: HCT-15 colon
# [57] = test system: MDA-MB-231 breast
structure (smiles),measurement,setting,value
CCCC/C=C\C(O)(C(=O)OC1CN2CCC1CC2)c1ccccc1 (centres undefined),GI50,[1],> 100 µM
same,TGI,[1],> 100 µM
same,GI50,[2],> 100 µM
same,TGI,[2],> 100 µM
same,GI50,[3],> 100 µM
same,TGI,[3],> 100 µM
same,GI50,[4],> 100 µM
same,TGI,[4],> 100 µM
same,GI50,[5],> 100 µM
same,TGI,[5],> 100 µM
same,GI50,[6],> 100 µM
same,TGI,[6],> 100 µM
same,GI50,[7],> 100 µM
same,TGI,[7],> 100 µM
same,GI50,[8],> 100 µM
same,TGI,[8],> 100 µM
same,GI50,[9],> 100 µM
same,TGI,[9],> 100 µM
same,GI50,[10],> 100 µM
same,TGI,[10],> 100 µM
same,GI50,[11],> 100 µM
same,TGI,[11],> 100 µM
same,GI50,[12],> 100 µM
same,TGI,[12],> 100 µM
same,GI50,[13],> 100 µM
same,TGI,[13],> 100 µM
same,GI50,[14],> 100 µM
same,TGI,[14],> 100 µM
same,GI50,[15],> 100 µM
same,TGI,[15],> 100 µM
same,GI50,[16],> 100 µM
same,TGI,[16],> 100 µM
same,GI50,[17],> 100 µM
same,TGI,[17],> 100 µM
same,GI50,[18],> 100 µM
same,TGI,[18],> 100 µM
same,GI50,[19],> 100 µM
same,TGI,[19],> 100 µM
same,GI50,[20],> 100 µM
same,TGI,[20],> 100 µM
same,GI50,[21],> 100 µM
same,TGI,[21],> 100 µM
same,GI50,[22],> 100 µM
same,TGI,[22],> 100 µM
same,GI50,[23],> 100 µM
same,TGI,[23],> 100 µM
same,GI50,[24],> 100 µM
same,TGI,[24],> 100 µM
same,GI50,[25],> 100 µM
same,TGI,[25],> 100 µM
same,GI50,[26],> 100 µM
same,TGI,[26],> 100 µM
same,GI50,[27],> 100 µM
same,TGI,[27],> 100 µM
same,GI50,[28],> 100 µM
same,TGI,[28],> 100 µM
same,GI50,[29],> 100 µM
same,TGI,[29],> 100 µM
same,GI50,[30],> 100 µM
same,TGI,[30],> 100 µM
same,GI50,[31],> 100 µM
same,TGI,[31],> 100 µM
same,GI50,[32],24.7 µM
same,TGI,[32],> 100 µM
same,GI50,[33],> 100 µM
same,TGI,[33],> 100 µM
same,GI50,[34],> 100 µM
same,TGI,[34],> 100 µM
same,GI50,[35],> 100 µM
same,TGI,[35],> 100 µM
same,GI50,[36],> 100 µM
same,TGI,[36],> 100 µM
same,GI50,[37],> 100 µM
same,TGI,[37],> 100 µM
same,GI50,[38],> 100 µM
same,TGI,[38],> 100 µM
same,GI50,[39],> 100 µM
same,TGI,[39],> 100 µM
same,GI50,[40],> 100 µM
same,TGI,[40],> 100 µM
same,GI50,[41],> 100 µM
same,TGI,[41],> 100 µM
same,GI50,[42],> 100 µM
same,TGI,[42],> 100 µM
same,GI50,[43],> 100 µM
same,TGI,[43],> 100 µM
same,GI50,[44],> 100 µM
same,TGI,[44],> 100 µM
same,GI50,[45],> 100 µM
same,TGI,[45],> 100 µM
same,GI50,[46],> 100 µM
same,TGI,[46],> 100 µM
same,GI50,[47],> 100 µM
same,TGI,[47],> 100 µM
same,GI50,[48],> 100 µM
same,TGI,[48],> 100 µM
same,GI50,[49],> 100 µM
same,TGI,[49],> 100 µM
same,GI50,[50],> 100 µM
same,TGI,[50],> 100 µM
same,GI50,[51],> 100 µM
same,TGI,[51],> 100 µM
same,GI50,[52],> 100 µM
same,TGI,[52],> 100 µM
same,GI50,[53],> 100 µM
same,TGI,[53],> 100 µM
same,GI50,[54],> 100 µM
same,TGI,[54],> 100 µM
same,GI50,[55],> 100 µM
same,TGI,[55],> 100 µM
same,GI50,[56],> 100 µM
same,TGI,[56],> 100 µM
same,GI50,[57],> 100 µM
same,TGI,[57],> 100 µM
